Legend:
5-HT2A receptor = 5-HT2A receptor (Homo sapiens, UniProt P28223); test: FLIPR calcium mobilization functional assay, human 5-HT2A receptor; conditions: for Selectivity α1A/5-HT2A: ratio of Ke α1A / Ke 5-HT2A; for fold lower 5-HT2A receptor affinity than 5: Ke compared with compound 5
α1A adrenergic receptor = target: T1, α1A adrenergic receptor (Homo sapiens, UniProt P35348); test: FLIPR calcium mobilization functional assay, α1A adrenergic receptor
T1 sequence (P35348 1-466): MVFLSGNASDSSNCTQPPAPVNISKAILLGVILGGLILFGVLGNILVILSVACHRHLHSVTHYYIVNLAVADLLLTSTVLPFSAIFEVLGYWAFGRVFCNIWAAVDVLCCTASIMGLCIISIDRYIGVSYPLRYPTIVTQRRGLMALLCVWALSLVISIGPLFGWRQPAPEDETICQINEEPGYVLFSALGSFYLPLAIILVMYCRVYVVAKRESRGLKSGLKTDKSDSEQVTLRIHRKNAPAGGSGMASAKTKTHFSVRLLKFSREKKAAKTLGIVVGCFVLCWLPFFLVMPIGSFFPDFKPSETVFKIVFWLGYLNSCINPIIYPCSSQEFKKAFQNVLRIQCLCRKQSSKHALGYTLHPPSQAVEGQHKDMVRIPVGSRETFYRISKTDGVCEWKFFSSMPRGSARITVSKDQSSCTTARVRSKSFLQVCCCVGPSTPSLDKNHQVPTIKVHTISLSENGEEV

Protein sequences, listed by entry. Tags and fused reporters are not part of them.
UniProt P28223, whole entry: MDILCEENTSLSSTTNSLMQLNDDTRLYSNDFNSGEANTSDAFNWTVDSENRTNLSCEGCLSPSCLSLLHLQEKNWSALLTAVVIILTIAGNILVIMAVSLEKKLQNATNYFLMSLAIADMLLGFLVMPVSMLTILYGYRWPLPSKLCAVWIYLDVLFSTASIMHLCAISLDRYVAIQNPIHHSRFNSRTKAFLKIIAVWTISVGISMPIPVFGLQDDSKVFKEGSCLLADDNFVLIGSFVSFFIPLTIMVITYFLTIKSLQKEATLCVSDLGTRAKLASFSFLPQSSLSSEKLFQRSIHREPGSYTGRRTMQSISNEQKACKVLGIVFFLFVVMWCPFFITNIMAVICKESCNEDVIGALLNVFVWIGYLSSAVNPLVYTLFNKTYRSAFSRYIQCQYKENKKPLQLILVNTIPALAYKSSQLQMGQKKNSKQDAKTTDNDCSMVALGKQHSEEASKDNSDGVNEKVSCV

## C=CCOc1c(OC)cc2c3c1-c1cc4c(cc1CC3N(C)CC2)OCO4 (stereo not shown) [Compound 5]
5-HT2A receptor
  Kb: 70 ± 15 nM
  Selectivity α1A/5-HT2A: >143

## C/C=C/COc1c(OC)cc2c3c1-c1cc4c(cc1CC3N(C)CC2)OCO4 (stereo not shown) [Compound 8a]
5-HT2A receptor
  Kb: 723 ± 68 nM

## C=C(C)COc1c(OC)cc2c3c1-c1cc4c(cc1CC3N(C)CC2)OCO4 (stereo not shown) [Compound 8b]
5-HT2A receptor
  Kb: 172 ± 71 nM
  fold lower 5-HT2A receptor affinity than 5: 2 fold
  Selectivity α1A/5-HT2A: > 58

## COc1cc2c3c(c1OCC=C(C)C)-c1cc4c(cc1CC3N(C)CC2)OCO4 (stereo not shown) [Compound 8c]
5-HT2A receptor
  Kb: 2070 nM
  fold lower 5-HT2A receptor affinity than 5: 30 fold
  Selectivity α1A/5-HT2A: > 5

## CC#CCOc1c(OC)cc2c3c1-c1cc4c(cc1CC3N(C)CC2)OCO4 (stereo not shown) [Compound 8d]
5-HT2A receptor
  Kb: 2690 nM
α1A adrenergic receptor
  Kb: 557 ± 111 nM

## C=CCCCOc1c(OC)cc2c3c1-c1cc4c(cc1CC3N(C)CC2)OCO4 (stereo not shown) [Compound 8f]
5-HT2A receptor
  Kb: > 10000 nM
α1A adrenergic receptor
  Kb: > 10000 nM

From paper PMC4628873 (Bioorganic & medicinal chemistry letters, 2015)
